TSG101-PTAP inh: blocks PTAP/TSG101 interaction to inhibit HIV-1 budding; Q99816; AID 493005; 340,000 tested, under 10 active; Potency, µM (highest dose often 115 µM), for the others: top-dose activity change, negative = inhibition, most hits filed as inhibitors; Fluorescence polarization, FITC-PTAP peptide / Tsg101 binding; active means well fitted inhibition curve with a large enough effect in the main read-out, with a control signal flat, not every such curve was filed as active; inconclusive means small, poorly fitted or top-dose-only effect, or effect the other way, or a change in a side signal; inactive means no such curve, though single readings can be large or run the other way; further: potency means the concentration at half of the fitted maximal effect; % of control where 0% means no effect
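Fluorescence polarization binding of Tsg101 binding domain (10 uM final) to FITC-labeled PTAP peptide (50 nM final) in HEPES pH 7.5 buffer with NaCl, Tween 20, EDTA, TCEP. Compounds added before peptide; binding 20 min at RT.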
Rango-impB inh: inhibitors of Rango-importin beta complex formation; Potency, µM (doses to about 92.2 µM), for inactives: at the highest dose inhibition of complex formation; Q14974; 340,000 compounds, 0.031% hits; Rango CFP/YFP FRET sensor + importin beta, 45 min;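 further: potency means the concentration at half of the fitted maximal effect; 0% = DMSO wells and 100% = buffer wells lacking importin beta; nearly all actives have a fitted effect of over 15% in size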
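Inhibition scored from the CFP 486 nm/YFP 530 nm FRET ratio 45 min after adding 0.125 microM importin beta to 50 nM Rango biosensor preincubated 5 min with compound (room temperature, PBS with DTT, Tween-20, BSA). No-importin wells as positive control.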
Rango dissoc inh: prevents RanGTP from dissociating the Rango-importin beta complex. O95149+P62826. AID 540253. Biochemical FRET Rango-importin beta, RanGTP-induced dissociation. 340,000 compounds, 0.071% hits. Potency, µM (top dose mostly 46.1 µM), for the others: top-dose activity change, negative = inhibition; further: potency means the concentration at half of the fitted maximal effect; % of control where 0% means no effect; nearly all actives have a fitted effect of over 45% in size
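FRET read at 45 min, room temperature: inhibitors block the CFP/YFP signal rise when RanGTP (0.6 uM Ran, 2 mM GTP, 0.2 uM RCC1) frees Rango (0.1 uM) from importin beta (0.25 uM). Pre-read after 5 min compound exposure flags interference.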
D3 ag: D3 dopamine receptor (human) agonism; P35462; D3R DiscoveRx beta-arrestin cells, luminescence, 90 min; max activation, %; 410,000 compounds, 0.58% hits; AID 652048; in the data active means max activation above about 30%; further: 0% is about no effect
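Cells at 1500/well, incubated overnight, then treated with pinned compounds (dopamine as control) for 90 min at 37 degrees C. DiscoveRx reagent added for 30 - 60 minutes at room temperature; luminescence read.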
Mm-Cpn inhibitor: inhibitors of Methanococcus maripaludis chaperonin TRiC (MmCpn). purified Mm-Cpn ATPase, ADP Transcreener TR-FRET. Potency, µM (titrated, usually from 76.9 µM), inactives show top-dose activity, negative = inhibition, usual class: inhibitors. 330,000 compounds, 0.031% hits. AID 504842; active means well fitted inhibition curve with a large enough effect; inconclusive means small, poorly fitted or top-dose-only effect; further: potency means the concentration at half of the fitted maximal effect; on the % scale 0 is the no-effect control and ±100 the full control effect; nearly all actives have a fitted effect of over 80% in size
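Measured: ADP formation by purified Mm-CPN. Conditions: 25 nM protein, 10 uM ATP, Tris pH 7.4 with Mg2+, K+ and DTT, 37°C for 30 min. Detection: Transcreener HTRF after 30 min at room temperature.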
DRD3 antagonist: antagonists of human D3 dopamine receptor; AID 652054; max response, negative = inhibition, %; 360,000 compounds, 2.5% hits; D3R cells, DiscoveRx beta-arrestin luminescence, antagonist mode; active compounds read low; P35462; in the data active means max response below about -50%; inconclusive means no clear call, values can overlap the other calls; further: on the % scale 0 is the no-effect control and ±100 the full control effect
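Cells expressing the human receptor were seeded at 1500 cells/well, incubated overnight at 37 degrees C in 5% CO2, then exposed to library compounds with dopamine controls for 90 minutes at 37 degrees C before luminescent detection.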
* marks the source's active call; other numbers are inactive results; ? = inconclusive; · = no result given. Compounds with a hit are over-represented: about 2.9% of the library has one in this group of screens. Unless noted, the call rests on the fitted dose curve.

SMILES	TSG101-PTAP inh	Rango-impB inh	Rango dissoc inh	D3 ag	Mm-Cpn inhibitor	DRD3 antagonist
Cc1ccc(C2/C(=C(\O)c3c(C)nc4ccccn34)C(=O)C(=O)N2CCN(C)C)o1 (stereo not given)	0%	2%	3%	43*	2%	11
O=S(=O)(c1ccccc1)N1CCN(CC2CC3C=CC2C3)CC1 (stereo not given)	-3%	0%	7%	0	-2%	13
Cc1ccc(CN2CCN(CC3CC4C=CC3C4)CC2)cc1 (stereo not given)	0%	-1%	24%	-17	1%	-60*
CC[C@@H]1/C=C(\C)C[C@H](C)C[C@H](OC)[C@H]2O[C@@](O)(C(=O)C(=O)N3CCCC[C@H]3C(=O)O[C@H](/C(C)=C/[C@@H]3CC[C@@H](Cl)[C@H](OC)C3)[C@H](C)[C@@H](O)CC1=O)[C@H](C)C[C@@H]2OC	·	·	·	-3	·	·
O=[N+]([O-])c1ccc(N2CCN(Cc3ccccc3)CC2)c2c1no[n+]2[O-]	·	·	·	-13	·	-74*
O=[N+]([O-])c1ccc(N2CCN(Cc3ccccc3)CC2)s1	2%	2%	-7%	-9	-2%	-66*
CCCC#Cc1ccc2c(c1)O[C@H](CN(C)S(=O)(=O)c1cccc(OC)c1)[C@H](C)CN([C@H](C)CO)S2(=O)=O	·	·	·	3	·	0
Cc1nc2c(-c3ccc(F)cc3)c(C)nn2c(C)c1CCC(=O)NCc1cccc(Cl)c1	·	·	·	-3	·	·
C/C(=N\NC(=S)NCC(C)(C)C)c1cc(F)cc(F)c1O	-5%	2%	0%	-13	-5%	-88*
COCCNC(=S)N/N=C(\C)c1ccc(O)cc1	-1%	-2%	16%	-7	4%	-3
FC(F)(F)c1cnc(NNC(=S)Nc2ccccc2Cl)c(Cl)c1	0%	0%	9%	-17	-2%	-75*
O=C(Nc1ccccc1)Nc1ncc(C(F)(F)F)cc1Cl	·	·	·	-4	·	-23

Reprinted from the part before: six entries, then new ones.
SMILES	TSG101-PTAP inh	Rango-impB inh	Rango dissoc inh	D3 ag	Mm-Cpn inhibitor	DRD3 antagonist
CCCC#Cc1ccc2c(c1)O[C@H](CN(C)S(=O)(=O)c1cccc(OC)c1)[C@H](C)CN([C@H](C)CO)S2(=O)=O	·	·	·	3	·	0
Cc1nc2c(-c3ccc(F)cc3)c(C)nn2c(C)c1CCC(=O)NCc1cccc(Cl)c1	·	·	·	-3	·	·
C/C(=N\NC(=S)NCC(C)(C)C)c1cc(F)cc(F)c1O	-5%	2%	0%	-13	-5%	-88*
COCCNC(=S)N/N=C(\C)c1ccc(O)cc1	-1%	-2%	16%	-7	4%	-3
FC(F)(F)c1cnc(NNC(=S)Nc2ccccc2Cl)c(Cl)c1	0%	0%	9%	-17	-2%	-75*
O=C(Nc1ccccc1)Nc1ncc(C(F)(F)F)cc1Cl	·	·	·	-4	·	-23
Cc1cccc(NC(=S)NNc2ncc(C(F)(F)F)cc2Cl)c1	0%	0%	7%	-15	-1%	-64*
Cc1ccc(Cn2c(=O)c3c(nc4n3CCN4c3cc(C)cc(C)c3)n(C)c2=O)cc1	·	·	·	6	·	·
Cc1c(Cl)cccc1NC(=O)CCS(=O)(=O)c1ccc2c(c1)CC(=O)N2C	·	·	·	5	·	·
COc1nc(Cc2ccc(Cl)cc2)nc2ccccc12	-1%	3%	15%	6	-7%	15
C#CCSc1nc(Cc2ccc(Cl)cc2)nc2ccccc12	-6%	-3%	-1%	48*	-2%	19
Cc1cc(=O)n2nc(N(C)CC(=O)NCc3ccccc3C)sc2n1	·	·	·	-10	·	·
Cc1ccccc1N1C(=O)[C@@H]2Cc3ccccc3CN2C1=O	-6%	-1%	-5%	-2	0%	?
O=C1[C@@H]2Cc3ccccc3CN2C(=O)N1c1cccc(F)c1	-1%	1%	7%	37*	0%	-11
CCn1c(SCC(=O)N2CCCc3ccccc32)nnc1-c1c[nH]c2ccccc12	1%	-1%	2%	-5	2%	-51*
CCn1c(SCC(=O)N2CCc3ccccc32)nnc1-c1c[nH]c2ccccc12	-3%	4%	7%	-3	-1%	18
Cc1ccc(C)c(NC(=S)NNC(=O)c2csc3c2CCC(C)C3)c1 (stereo not given)	-1%	0%	2%	-8	1%	-60*
Cc1cc(NC(=O)c2cccs2)cc(-c2nc3cc(Cl)ccc3o2)c1O	·	·	·	-3	·	·
CCOC(=O)C(=O)/C(C#N)=C/Nc1ccccc1	-7%	0%	-4%	1	2%	-57*
O=C(Nc1cccc(NC(=O)c2cc([N+](=O)[O-])ccc2Cl)n1)c1cc([N+](=O)[O-])ccc1Cl	-3%	21µM*	1%	-8	·	-14
CN(C)c1ccc(-c2csc(C(O)(c3ccccc3)C(F)(F)F)n2)cc1 (stereo not given)	·	·	·	-12	·	-94*
CCn1cc(C(=O)NCCc2ccc(OC)c(OC)c2)c(=O)c2cc(S(=O)(=O)N3CCC(C)CC3)ccc21	·	·	·	-5	·	·
Cc1ccc2[nH]c3nc(SCCN4CCOCC4)nnc3c2c1	-3%	0%	2%	-3	2%	-57*
CCn1c2ccc(C)cc2c2nnc(SCCN3CCOCC3)nc21	-3%	-5%	11%	-2	-2%	-23
CC(=O)c1ccc(N2CCN(CC(O)COC(c3ccccc3)c3ccccc3)CC2)cc1 (stereo not given)	-8%	5%	20%	-23	0%	-69*
COc1cccc(OCC(O)CN2CCN(c3ccc(Cl)cc3)CC2)c1 (stereo not given)	-9%	5%	0%	-1	-3%	-5
OCCN1CCN(CC(O)COc2ccc(-c3ccccc3)cc2)CC1 (stereo not given)	-3%	?	5%	2	-3%	-62*
OC(COc1ccc(Br)cc1)CN1CCN(c2ccccc2)CC1 (stereo not given)	-2%	0%	-11%	15	-3%	-51*
COc1cccc(OCC(O)CN2CCN(c3ccccc3)CC2)c1 (stereo not given)	-1%	2%	-7%	31*	1%	?
O=S(=O)(c1ccc(Cl)cc1Cl)n1ccnc1	·	·	·	1	·	·
CCCc1nnc(NC(=O)Cc2coc3cc(C)cc(C)c23)s1	·	·	·	5	·	·
Cc1cc(C)n(C(C)CC(=O)NCc2ccccc2C)n1 (stereo not given)	·	·	·	-3	·	·
Cc1ccc(N2C(=O)CCSC23C(=O)N(Cc2ccccc2)c2ccccc23)cc1 (stereo not given)	·	·	·	5	·	·
Cc1ccccc1NC(=O)c1ccc(F)c(S(=O)(=O)NC2CCCC2)c1	·	·	·	9	·	·
COc1cc(C(C)=O)ccc1OCC(O)CN1CCN(c2cc(C)cc(C)c2)CC1 (stereo not given)	-2%	2%	-14%	-11	-1%	-56*
OC(COc1ccc2cc(Br)ccc2c1)CN1CCCC1 (stereo not given)	-6%	4%	-3%	-16	1%	-27
OC(COc1ccccc1)CN1CCN(c2ccccc2)CC1 (stereo not given)	0%	0%	0%	-4	·	-71*
COc1cccc(OCC(O)CN2CCN(c3ccccn3)CC2)c1 (stereo not given)	-3%	6%	-11%	35*	2%	?
